Earlier results on 1 substance are cited in article PMC5831081 (Biochemistry, 2017).

This series relates to CYP2C9. The conditions noted are these: cited from earlier work.

For the substance (S)-flurbiprofen, the “factor of decrease in affinity in the presence of POR” value is on record as 48.
